scFv variants of Ab-91 (heavy chain) against a SARS-CoV-2 spike peptide

From the AlphaSeq antibody data of Engelhart et al. 2022 (doi:10.1038/s41597-022-01779-4), copy in the FLAb collection.

Binding partner: SARS-CoV-2 spike HR2 peptide, sequence PDVDLGDISGINAS.

Parent scFv Ab-91: VL joined to VH by the linker GGGGSGGGGSGGGGS. Changes lie in the heavy chain CDRs alone.
VL: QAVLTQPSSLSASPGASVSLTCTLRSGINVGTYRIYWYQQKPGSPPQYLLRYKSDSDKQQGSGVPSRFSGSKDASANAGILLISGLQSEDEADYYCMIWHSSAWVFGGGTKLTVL
VH: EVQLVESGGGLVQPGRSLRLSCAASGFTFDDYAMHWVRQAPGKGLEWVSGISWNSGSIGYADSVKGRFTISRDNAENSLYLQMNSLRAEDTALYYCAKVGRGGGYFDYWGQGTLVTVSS

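The library (AAYL51) carries one to three amino acid substitutions per variant, with no insertions or deletions. The scFvs were displayed on barcoded MATa yeast, the peptide on MATalpha yeast. The frequency of each diploid, read from paired DNA barcodes, reflects how well the two displayed proteins bind. Scores were corrected for input abundance and mapped to Kd with protein pairs of known affinity run in the same pool. Each pool was mated in three replicate cultures.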

Substitutions are numbered in sequence along the VH above, starting at 1 (not Kabat).
Scale: log10 of Kd in nM, estimated from mating counts; low values are strong binders.
The mean shown is taken over the replicates in which the pair was detected.
A pair that was not seen in that replicate is written "ND"; this usually means weak binding, but a binder can also be missed.
Parent in this assay: reference entry 1.86, copy in this library 0.88.
Background: pairings of library AAYL51 with three empty control strains gave a value in 21% of cases (median 4.54, 5th percentile 3.26). Values in that range, when seen in few replicates, are hard to tell from nonspecific mating. The control count says in how many pairings with the empty strains this scFv gave a signal.

With D31R/A33G/G59I the result was 1.43, 1.32, 0.71 (mean 1.15; controls 4 of 9).
With F29N/Y32Q/Y108P the result was 4.64, ND, 4.62 (mean 4.63; controls 4 of 9).
With Y108Q the result was 5.06, ND, ND (controls 1 of 9).
With T28I/F29P/A33I the result was ND, ND, ND (controls 0 of 9).
With G50W/I58Y/G104R the result was 5.53, 5.18, ND (mean 5.36; controls 0 of 9).
With T28D/W53S/G59Y the result was 5.20, 4.28, ND (mean 4.74; controls 7 of 9).
With G56H/D62K/G102R the result was ND, ND, ND (controls 1 of 9).
With G26A/H35E/S52K the result was 2.56, ND, ND (controls 1 of 9).
With A33T/S57I/G103V the result was ND, ND, ND (controls 0 of 9).
With R101V/G103V/D107C the result was 3.89, 3.76, ND (mean 3.82; controls 4 of 9).
With S63Y/R101E/F106M the result was ND, ND, ND (controls 0 of 9).
With D31Q/S57T/K65W the result was 5.71, ND, ND (controls 2 of 9).
With S55F/G56C/I58A the result was ND, ND, 3.58 (controls 0 of 9).
With I58T/Y60V/Y105Q the result was 3.29, 3.11, 2.96 (mean 3.12; controls 2 of 9).
With F29D/D62N/V99N the result was ND, ND, ND (controls 1 of 9).
With D31R/G102C the result was 1.66, 1.29, 0.67 (mean 1.20; controls 1 of 9).
With Y32R/I58G/R101K the result was ND, ND, ND (controls 2 of 9).
With I51S/N54L/G59Q the result was ND, ND, ND (controls 0 of 9).
With Y32G/S55D/G103I the result was ND, ND, ND (controls 0 of 9).
With S52P/S55V/K65L the result was ND, ND, ND (controls 2 of 9).
With D31I/K65R the result was 1.94, 2.55, 1.20 (mean 1.90; controls 0 of 9).
With I58N/V64H/G102Q the result was ND, 4.68, ND (controls 3 of 9).
With G26T the result was ND, 5.10, ND (controls 5 of 9).
With S55N/V99M/R101A the result was ND, ND, ND (controls 1 of 9).
With D30M/G56T/S57Y the result was 2.07, 2.03, 1.68 (mean 1.93; controls 6 of 9).
With N54A/D62Y/S63F the result was ND, 5.75, 4.15 (mean 4.95; controls 3 of 9).
With T28I/D62P/G103I the result was 6.52, 4.82, 4.81 (mean 5.38; controls 5 of 9).
With W53Q/G100R/F106D the result was 1.62, 1.58, 1.31 (mean 1.50; controls 4 of 9).
With I51V/G100D/F106W the result was ND, ND, ND (controls 0 of 9).
With G56L/V64K/D107Q the result was ND, ND, ND (controls 1 of 9).
With M34A/H35R the result was 5.51, ND, ND (controls 0 of 9).
With I51K/G59M/F106R the result was 4.84, ND, ND (controls 1 of 9).
With D31C/K65A/G103R the result was ND, ND, ND (controls 0 of 9).
With Y32C/A61H/R101I the result was ND, ND, ND (controls 0 of 9).
With S52Q/D62L/V99I the result was 3.59, ND, 3.25 (mean 3.42; controls 0 of 9).
With W53D/Y60S/Y105A the result was ND, ND, ND (controls 0 of 9).
With F29W/D31E/A61D the result was 4.95, 3.97, ND (mean 4.46; controls 4 of 9).
With F29N/I58G/D107G the result was ND, 4.22, ND (controls 4 of 9).
With T28N/G103T/D107F the result was ND, ND, ND (controls 1 of 9).
With G26V/Y108W the result was ND, ND, ND (controls 0 of 9).
With N54S/G56S/K65S the result was 1.57, 1.73, 1.22 (mean 1.51; controls 4 of 9).
With M34N/A61T/V64E the result was 4.62, ND, ND (controls 2 of 9).
With W53P/G56L/D62H the result was 3.81, 4.57, 5.89 (mean 4.76; controls 7 of 9).
With I58P/Y60E/A61H the result was ND, ND, ND (controls 3 of 9).
With M34V/N54S the result was ND, ND, 2.27 (controls 0 of 9).
With S57G/A61N/K65N the result was 3.74, 6.13, ND (mean 4.93; controls 1 of 9).

Extract of 7 entries:

{"changes": "Y108Q", "replicates, log10 nM": "5.06, ND, ND", "log10 Kd (nM), mean": "5.06", "control signals": "1 of 9"}
{"changes": "F29D/D62N/V99N", "replicates, log10 nM": "ND, ND, ND", "log10 Kd (nM), mean": "ND", "control signals": "1 of 9"}
{"changes": "I51S/N54L/G59Q", "replicates, log10 nM": "ND, ND, ND", "log10 Kd (nM), mean": "ND", "control signals": "0 of 9"}
{"changes": "D31Q/S57T/K65W", "replicates, log10 nM": "5.71, ND, ND", "log10 Kd (nM), mean": "5.71", "control signals": "2 of 9"}
{"changes": "W53D/Y60S/Y105A", "replicates, log10 nM": "ND, ND, ND", "log10 Kd (nM), mean": "ND", "control signals": "0 of 9"}
{"changes": "I58P/Y60E/A61H", "replicates, log10 nM": "ND, ND, ND", "log10 Kd (nM), mean": "ND", "control signals": "3 of 9"}
{"changes": "N54A/D62Y/S63F", "replicates, log10 nM": "ND, 5.75, 4.15", "log10 Kd (nM), mean": "4.95", "control signals": "3 of 9"}